Results taken from PubChem BioAssay (NCI).
Some salts or complexes appear as unconnected parts, following the source record.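 Tested at 5 concentrations; 48 h exposure; 96-well plates; endpoints linearly interpolated, else capped at highest concentration. At the GI50, growth is halved. TGI denotes the concentration required for complete inhibition of growth.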

Experiments:
Experiment in all cases: NCI-60 cell line screen, 48 h
SK-OV-3 ovarian = tested on: SK-OV-3 ovarian
OVCAR-4 ovarian = tested on: OVCAR-4 ovarian
MALME-3M melanoma = tested on: MALME-3M melanoma
786-0 renal = tested on: 786-0 renal
PC-3 prostate = tested on: PC-3 prostate
NCI/ADR-RES ovarian = tested on: NCI/ADR-RES ovarian
COLO 205 colon = tested on: COLO 205 colon
MDA-MB-231 breast = tested on: MDA-MB-231 breast
RXF 393 renal = tested on: RXF 393 renal
LOX IMVI melanoma = tested on: LOX IMVI melanoma
M14 melanoma = tested on: M14 melanoma
SK-MEL-5 melanoma = tested on: SK-MEL-5 melanoma
HOP-62 NSCLC = tested on: HOP-62 NSCLC
U251 CNS = tested on: U251 CNS
OVCAR-5 ovarian = tested on: OVCAR-5 ovarian
DU-145 prostate = tested on: DU-145 prostate
SK-MEL-2 melanoma = tested on: SK-MEL-2 melanoma
NCI-H460 lung = tested on: NCI-H460 lung
ACHN renal = tested on: ACHN renal
HT29 colon = tested on: HT29 colon
NCI-H23 lung = tested on: NCI-H23 lung
SW-620 colon = tested on: SW-620 colon
MCF7 breast = tested on: MCF7 breast
EKVX NSCLC = tested on: EKVX NSCLC
SNB-19 CNS = tested on: SNB-19 CNS
T-47D breast = tested on: T-47D breast
SF-268 CNS = tested on: SF-268 CNS
MDA-MB-435 = tested on: MDA-MB-435
SF-295 CNS = tested on: SF-295 CNS
SF-539 CNS = tested on: SF-539 CNS
HCT-15 colon = tested on: HCT-15 colon
NCI-H522 lung = tested on: NCI-H522 lung
NCI-H322M lung = tested on: NCI-H322M lung
UACC-62 melanoma = tested on: UACC-62 melanoma
TK-10 renal = tested on: TK-10 renal
UO-31 renal = tested on: UO-31 renal
KM12 colon = tested on: KM12 colon
HS 578T breast = tested on: HS 578T breast
IGROV1 ovarian = tested on: IGROV1 ovarian
HCT-116 colon = tested on: HCT-116 colon
HCC-2998 colon = tested on: HCC-2998 colon
UACC-257 melanoma = tested on: UACC-257 melanoma
SNB-75 CNS = tested on: SNB-75 CNS
RPMI-8226 leukemia = tested on: RPMI-8226 leukemia
NCI-H226 lung = tested on: NCI-H226 lung
SK-MEL-28 melanoma = tested on: SK-MEL-28 melanoma
SN12C renal = tested on: SN12C renal
A498 renal = tested on: A498 renal
CAKI-1 renal = tested on: CAKI-1 renal
BT-549 breast = tested on: BT-549 breast
OVCAR-8 ovarian = tested on: OVCAR-8 ovarian
A549 NSCLC = tested on: A549 NSCLC
OVCAR-3 ovarian = tested on: OVCAR-3 ovarian
HOP-92 NSCLC = tested on: HOP-92 NSCLC

## O=[N+]([O-])c1cc([N+](=O)[O-])c(O)c([N+](=O)[O-])c1.c1ccc([I+]c2ccccc2)cc1
SK-OV-3 ovarian
  TGI: > 100 µM
OVCAR-4 ovarian
  TGI: > 100 µM
MALME-3M melanoma
  TGI: 97.2 µM
786-0 renal
  TGI: > 100 µM
PC-3 prostate
  TGI: > 100 µM
NCI/ADR-RES ovarian
  TGI: > 100 µM
COLO 205 colon
  TGI: > 100 µM
MDA-MB-231 breast
  TGI: > 100 µM
RXF 393 renal
  TGI: > 100 µM
LOX IMVI melanoma
  TGI: > 100 µM
M14 melanoma
  TGI: > 100 µM
SK-MEL-5 melanoma
  TGI: 19.4 µM
HOP-62 NSCLC
  TGI: 52.3 µM
U251 CNS
  TGI: > 100 µM
OVCAR-5 ovarian
  TGI: > 100 µM
DU-145 prostate
  TGI: > 100 µM
SK-MEL-2 melanoma
  TGI: > 100 µM
NCI-H460 lung
  TGI: 22.3 µM
ACHN renal
  TGI: > 100 µM
HT29 colon
  TGI: > 100 µM
NCI-H23 lung
  TGI: > 100 µM
SW-620 colon
  TGI: > 100 µM
MCF7 breast
  TGI: > 100 µM
EKVX NSCLC
  TGI: 32.4 µM
SNB-19 CNS
  TGI: > 100 µM
T-47D breast
  TGI: > 100 µM
SF-268 CNS
  TGI: > 100 µM
MDA-MB-435
  TGI: > 100 µM
SF-295 CNS
  TGI: 14.3 µM
SF-539 CNS
  TGI: > 100 µM
HCT-15 colon
  TGI: > 100 µM
NCI-H522 lung
  TGI: 85.5 µM
NCI-H322M lung
  TGI: > 100 µM
UACC-62 melanoma
  GI50: 29.8 µM
  TGI: > 100 µM
TK-10 renal
  TGI: > 100 µM
UO-31 renal
  TGI: > 100 µM
KM12 colon
  TGI: > 100 µM
HS 578T breast
  TGI: > 100 µM
IGROV1 ovarian
  TGI: > 100 µM
HCT-116 colon
  TGI: > 100 µM
HCC-2998 colon
  TGI: > 100 µM
UACC-257 melanoma
  TGI: > 100 µM
SNB-75 CNS
  GI50: 15.6 µM
  TGI: > 100 µM
RPMI-8226 leukemia
  TGI: > 100 µM
NCI-H226 lung
  TGI: > 100 µM
SK-MEL-28 melanoma
  TGI: > 100 µM
SN12C renal
  TGI: > 100 µM
A498 renal
  TGI: > 100 µM
CAKI-1 renal
  TGI: 8.2 µM
BT-549 breast
  TGI: > 100 µM
OVCAR-8 ovarian
  TGI: > 100 µM
A549 NSCLC
  TGI: > 100 µM
OVCAR-3 ovarian
  TGI: > 100 µM
HOP-92 NSCLC
  TGI: > 100 µM
